Laboratory results as given in patent US20200231670A1 (AGENSYS, published 2020).

The chains behind the UniProt entries cited, without tags or fusion partners. Residues count along the entry.
UniProt Q9NQS3, 58-549 limits assumed, stated change not applied: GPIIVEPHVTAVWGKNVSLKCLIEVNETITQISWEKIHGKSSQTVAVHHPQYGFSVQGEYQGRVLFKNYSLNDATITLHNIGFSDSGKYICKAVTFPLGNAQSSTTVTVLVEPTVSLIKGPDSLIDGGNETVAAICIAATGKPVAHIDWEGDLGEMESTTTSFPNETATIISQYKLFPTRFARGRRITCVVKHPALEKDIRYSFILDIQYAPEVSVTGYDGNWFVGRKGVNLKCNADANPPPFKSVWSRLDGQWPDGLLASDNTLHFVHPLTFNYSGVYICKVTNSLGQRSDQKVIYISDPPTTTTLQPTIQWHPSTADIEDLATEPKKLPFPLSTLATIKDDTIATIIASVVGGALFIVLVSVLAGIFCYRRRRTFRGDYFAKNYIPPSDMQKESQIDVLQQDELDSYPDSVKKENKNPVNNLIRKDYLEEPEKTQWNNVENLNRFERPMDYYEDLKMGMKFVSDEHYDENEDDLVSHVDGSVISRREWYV

Target: T1, Nectin-3 over-expressed by engineered Rat1(E) cells (UniProt Q9NQS3 58-549, limits assumed)
T1 construct: whole, on cells; also called Rat1(E)-Nectin-3; Rat1(E) Nectin3
Assay: IHC, FFPE Rat1(E) cells expressing Nectin-3
Method: IHC staining was performed according to the following exemplary protocols. Briefly, an indirect IHC technique was used to detect Nectin-4 in the IHC assay. The samples were fixed in 10% buffered neutral formalin, processed and embedded into paraffin wax, and prepared as 4 μm tissue sections. After deparaffinization and re-hydration, sections were treated for antigen retrieval. The antigen epitopes in Nectin-4 were retrieved, for example, by application of heat to the tissue sections in an aqueous medium, commonly referred to as a Heat-Induced Epitope Retrieval (HIER) procedure. […] The tissue sections bound with primary antibodies were washed and detected with an enzyme-labeled, e.g. peroxidase-labeled, secondary antibody. […] The stained tissue sections were then scanned, imaged, and evaluated with light microscopy, for example, using an Aperio ScanScope CS (Aperio, Vista, Calif.).
To assess the level of Nectin-4 expression in the tissue sections by the level of antibody staining, stained tissue sections were assessed, evaluated, categorized, and recorded into different categories or scores according to the intensity of the IHC staining and cancer cell positivity ratio. […] Lack of specific staining was recorded as negative (“0” or interchangeably with as “−”). […]

binding result: no binding (tested: 2.5 µg/mL)
B1: M22-321b41.1 anti-Nectin-4 mouse monoclonal antibody (antibody, mouse IgG2a, kappa, V domains shown)
VH: QVQLQQSGAELARPGASVKLSCKASGYTFTTYWMQWVKQRPGQGLEWIGSIYPGDGDTRYTQKFKGKATLTADKSSSTAYIQLSTLASEDSAVYYCAREYYGLDYWGQGTTLTVSS
VL: DIVMTQAAFSNPVTLGTSASISCRSSKSLLHSNGITYLYWYLQKPGQSPQLLIYHMSNLASGVPDRFTSSGSGTDFTLRISRVEAEDVGVYYCAQNLELPFTFGGGTKLETKR
notes: Mouse IgG2a kappa from hybridoma M22-321b41.1 (ATCC PTA-124245), protein A purified; also called mAb M22-321b41.1; M22-321b1.1
